Here are results for five molecules from patent US20040101900A1, “Assay for rapid detection of TNT” (published 2004).

The test system of the assay is anti-TNT antibody A1.1.1. The assay can be described thus: plate-based homogenous cross reactivity assay in PBS. As to conditions: homogeneous format; for cross reactivity (in words): FIG. 5, within the error of the assay; for Percent cross-reactivity: PBS, calculated from the concentrations corresponding to half of the maximum signal, 7 to 5000 μg/L. As to the method:
Wells of white 96-well plates (microfluor 2, Dynex) were blocked with a solution of 1% bovine serum albumin (BSA) in Tris buffered saline (50 mM Tris-HCL, 105 mM NaCl, pH 7.5; TBS) for at least 2 hours. The blocking solution was removed and 0.33 pmol of anti-TNT antibody (A1.1.1 or 11B3) in 25 μl PBS was added to each of a series of wells followed by 2.5 pmol Cy5-DAP-TNP (in 25 μl PBS). Next, 50 μl solutions of TNT (in PBS) were added to test wells to final concentrations spanning 0.05 ng/ml to 10,000 ng/ml. Controls with 50 μl PBS in place of TNT solution were also performed. The fluorescence was read in a SpectraFluor Plus microtiter plate reader (Tecan) using a 620 nm excitation filter (10 nm band pass) and a 670 nm (25 nm band pass) emission filter. Control wells containing no antibody were typically included in each run. Fluorescence data were background corrected by taking the difference between emission values obtained for wells with TNT and control wells to which only PBS buffer was added.
Plate-based homogeneous assays were also performed with artificial seawater substituted for PBS as the assay medium. Additionally, plate-based homogenous cross reactivity assays were carried out in PBS under identical conditions using known TNT breakdown products, structurally related nitroaromatic compounds, or other nitro based explosives in place of TNT to test assay specificity. The TNT related compounds 2-amino-4,6-dinitrotoluene (2A-4,6-DNT), […] ([…] ), […] ([…] ), […] ([…] ), and […] ([…] ), and the explosive […] (RDX) were examined. Concentrations between 7 and 5000 μg/L were used to construct a curve for each of the compounds (see FIG. 5). […] .
Six compounds, either structurally related to TNT or other explosives were examined in both plate assay formats to explore antibody specificity in these formats. […] CHEM., Vol. 364, Issue 1/2, pp. 113-120 (1999); and Upvan Narang, Paul R. Gauger & Frances S. Ligler, A Displacement Flow Immunosensor for Explosive Detection Using Microcapillaries, Anal. Chem., Vol. 69, pp. 2779-2785 (1997), both of which are incorporated herein by reference.

This is a selection: effects in other tests are not listed, and their absence says nothing.

With 2,4,6-trinitrophenyl-n-methylnitramine, the “cross reactivity (in words)” value is listed as “cross-reacting the most” and the Percent cross-reactivity is given as 45%.
The corresponding values for `Cc1c([N+](=O)[O-])cccc1[N+](=O)[O-]` are “no cross reactivity” and 0.3%.
Consider `Cc1ccc([N+](=O)[O-])cc1[N+](=O)[O-]`, for which the Percent cross-reactivity is 5%.
Still for that read-out and setting: with `O=[N+]([O-])c1cc([N+](=O)[O-])cc([N+](=O)[O-])c1` the figure was 19%.
Consider `O=[N+]([O-])N1CN([N+](=O)[O-])CN([N+](=O)[O-])C1`, for which the “cross reactivity (in words)” value is “no cross reactivity” and the Percent cross-reactivity result is “no cross-reactivity”.
